In data set [1] the test system is MDA-MB231 cells (HLA-DR+) in blood. Kind of data set: HLA-DR+ (MDA-MB231) cells in peripheral blood of xenografted mice by FACS. The data set is classed as in vivo. How it is done: FIG. 11. Effect of HB-19 on metastatic tumour cells in a MDA-MB231 xenograft model. Investigation of MDA-MB231 cells in the blood of xenografted mice and treated or not with HB-19 was performed by flux cytometry (FACS) using anti HLA-DR antibodies. HLA-DR^+ are surrounded and the percentage of HLA-DR^+ cells among blood cells is indicated. A. Blood of mice without an MDA-MB231 xenograft, untreated, percentage of HLA-DR^+ cells among peripheral blood cells: 0.36% B. Blood of mice without an MDA-MB231 xenograft, untreated, percentage of HLA-DR+ cells among peripheral blood cells: 22.2% C. Blood of mice with MDA-MB231 xenograft, treated with HB-19 by subcutaneous route, percentage of HLA-DR+ cells among peripheral blood cells: 0.1% D. Blood of mice with an MDA-MB231 xenograft, treated with HB-19 by intraperitoneal route, percentage of HLA-DR+ cells among peripheral blood cells: 0.31%.
Moreover, it was not possible to detect HLA-DR^+ human cells (therefore MDA-MB231 tumour cells) in the peripheral blood cells of xenografted mice treated with HB-19 (FIG. 11). In fact, contrary to untreated mice (PBS) in which the proportion of MDA-MB231 cells (HLA-DR^+) represents 22.2% of peripheral blood cells, this proportion is only 0.1% to 0.31% in the case of mice treated with HB-19 by subcutaneous or intraperitoneal route.

Protein sequences, listed by entry. Tags and fused reporters are not part of them.
UniProt P19338, whole entry: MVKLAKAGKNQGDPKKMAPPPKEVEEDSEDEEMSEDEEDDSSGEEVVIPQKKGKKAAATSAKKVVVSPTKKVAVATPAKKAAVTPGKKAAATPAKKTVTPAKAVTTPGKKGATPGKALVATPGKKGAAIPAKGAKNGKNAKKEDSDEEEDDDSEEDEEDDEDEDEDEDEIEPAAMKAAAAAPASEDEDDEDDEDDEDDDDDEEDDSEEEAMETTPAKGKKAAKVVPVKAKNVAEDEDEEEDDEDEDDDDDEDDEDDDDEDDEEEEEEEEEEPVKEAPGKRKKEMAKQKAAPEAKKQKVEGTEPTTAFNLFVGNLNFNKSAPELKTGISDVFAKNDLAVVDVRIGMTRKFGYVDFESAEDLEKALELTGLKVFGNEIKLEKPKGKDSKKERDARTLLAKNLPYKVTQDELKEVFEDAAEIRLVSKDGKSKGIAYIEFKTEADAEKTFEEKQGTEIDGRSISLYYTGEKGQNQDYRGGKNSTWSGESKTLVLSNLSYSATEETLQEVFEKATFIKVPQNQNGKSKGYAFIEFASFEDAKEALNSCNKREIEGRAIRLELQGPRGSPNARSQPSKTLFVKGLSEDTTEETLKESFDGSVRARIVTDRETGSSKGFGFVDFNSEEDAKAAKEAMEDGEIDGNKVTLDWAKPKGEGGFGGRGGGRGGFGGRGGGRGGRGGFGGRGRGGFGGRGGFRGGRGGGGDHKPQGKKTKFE

Data set [2] addresses surface nucleolin (Homo sapiens, UniProt P19338). As to the kind of experiment: Surface nucleolin expression of MDA-MB 231 cells (biotinylated HB-19 pull-down, immunoblot). The data set is classed as cell-based. Also noted: cell expression of nucleolin by MDA-MB 231 cells; endogenous in cells; host or cells: MDA-MB 231 cells. To be noted: 10 μM. The method, then: FIG. 16. Inhibitory effect of HB-19, Nucant 3, Nucant 6 and de Nucant 7 on cell expression of nucleolin by MDA-MB 231 cells. MDA-MB 231 cells were cultured in 75 cm^2 in DMEM containing 10% foetal calf serum. After 2 days in culture, subconfluent cells (about 3×10^6 cell per vial) were treated with 10 μM of HB-19, Nucant 3, Nucant 6 or Nucant 7 for 24 or 48 hours. Lines C represent untreated cells. After 24 or 48 hours of treatment, cells were washed in PBS and incubated with 10 ml of DMEM containing 1% foetal calf serum and biotinylated HB-19 (5 μM) for 45 minutes at room temperature. After intensive washing in PBS containing 1 mM EDTA (PBS-EDTA), cytoplasmic extracts were prepared using a lysis buffer containing 20 mM Tris HCl, pH 7.6, 150 mM NaCl, 5 mM MgCl2, 0.2 mM phenylmethylsulfonyl fluoride, 5 mM β-mercaptoethanol, aprotinin (1000 U/ml) and 0.5% Triton X-100. The complex formed between surface nucleolin and biotinylated HB-19 was isolated purification of the extracts using avidine-agarose (100 μl; ImmunoPure Immobilized Avidin, Pierce Chemical Company, USA) in PBS-EDTA. After 2 hours of incubation at 4° C., the avidine-agarose samples were thoroughly washed with PBS-EDTA. These samples containing purified surface nucleolin (A material corresponding to 2×10^6 cells) and crude cell extracts (B and C; material corresponding to 4×10^5 cells) were denatured by heating in electrophoresis buffer containing SDS and analysed by SDS-PAGE. […] Electrophoresis analysis after staining with Coomassie Blue is shown in C. Line M corresponds to molecular weight markers.
In general terms: Immunoblotting shows a protein as a band on a membrane.

Data set [3] relates to surface nucleolin. As to the kind of experiment: Purification of proteins bound to HB19 after in vivo administration. An excerpt: This greatly limits the possibility of the occurrence of side effects.
Another data set deals with NIH-3T3 cells. As to the kind of experiment: Proliferation of NIH-3T3 cells stimulated by 5% foetal calf serum (tritiated thymidine incorporation). The data set is classed as cell-based. To be noted: 0.5 μM; 5% foetal calf serum. How it is done: FIG. 5. Effect of HB-19 on the proliferation of NIH-3T3 cells stimulated by 0.2 nM FGF-2 (A) or by 5% foetal calf serum (B). Quiescent NIH-3T3 cells are stimulated by FGF-2 or by 5% serum in the presence or not of HB19 at the concentrations indicated. After 24 hours of incubation, cell proliferation was determined by measuring the incorporation of tritiated thymidine. The results are given as a percentage with respect to the control stimulated by HARP (100%). MSD (threshold), (**p<0.01 and ***p<0.001).
FIG. 14. Effect of NUCANT 3, 6 and 7 on the proliferation of NIH-3T3 cells stimulated by 5% FCS. NIH-3T3 cells are made quiescent by serum deprivation are stimulated by 5% FCS in the presence or not of various NUCANT 3, 6 and 7 concentrations ranging from 0.125 to 2 μM. After 24 hours of incubation, cell proliferation was determined by measuring the incorporation of tritiated thymidine. The results are given as a percentage with respect to the control cells stimulated by 5% FCS. ID50 is indicated by the dotted line.
The effect of Nucant 3 on the proliferation of NIH-3T3 cells treated by 5% of FCS was also compared to that of compound HB-19. NIH-3T3 cells made quiescent by serum deprivation were stimulated by 5 FCS in the presence or not of different concentrations of NUCANT 3, 6 or 7 ranging from 0.125 to 2 μM. After 24 hours in incubation, cell proliferation is determined by measuring the incorporation of tritiated thymidine as described earlier.
The effect of hexavalent compounds Nucant 6 and Nucant 7 on the proliferation of NIH-3T3 cells triggered by 5% FCS was compared with that of pentavalent compound HB-19. NIH-3T3 cells made quiescent by serum deprivation stimulated by 5% FCS in the presence of various concentrations of NUCANT 3, 6 or 7 ranging from 0.125 to 2 μM. After 24 hours of incubation, cell proliferation was determined by measuring the incorporation of tritiated thymidine as described above.
On the technique in general: Incorporation of labelled thymidine or its analogues reports DNA synthesis.

The values that follow come from patent US8497349B2, “Use of multivalent synthetic ligands of surface nucleolin for treating cancer or inflammation” (Centre National de la Recherche Scientifique (CNRS), priority 2006, dated 2013).

For `CCCC[C@H](NC(=O)[C@H](CCCCNC(=O)[C@H](CCCNC(=N)N)NC(=O)[C@@H]1CCCN1C[C@@H](N)CCCCN)NC(=O)[C@H](CCC(=O)O)NC(=O)[C@H](CCCCNC(=O)[C@H](CCCNC(=N)N)NC(=O)[C@@H]1CCCN1C[C@@H](N)CCCCN)NC(=O)[C@@H]1CCCN1C(=O)CNC(=O)[C@H](CCCCNC(=O)[C@H](CCCNC(=N)N)NC(=O)[C@@H]1CCCN1C[C@@H](N)CCCCN)NC(=O)[C@H](CCCCN)NC(=O)[C@H](CCCCNC(=O)[C@H](CCCNC(=N)N)NC(=O)[C@@H]1CCCN1C[C@@H](N)CCCCN)NC(=O)[C@H](CCCNC(=N)N)NC(=O)[C@@H]1CCCN1C[C@@H](N)CCCCN)C(N)=O` [HB19, 5[Kpsi(CH2N)PR]-TASP], the “percentage of HLA-DR+ cells among peripheral blood cells” value in data set [1] (treated by intraperitoneal route) worked out at 0.31%; in data set [1] (treated by subcutaneous route) it was 0.1%. Further, on surface nucleolin [2] (24 hours of treatment), the “presence of surface nucleolin compared to untreated cells” value is reported as “reduction”. Moreover, the “presence of surface nucleolin” value at surface nucleolin [2] (48 hours of treatment) is on record as “non-detectable”. The cytotoxic effect entry on surface nucleolin [2] (MDA-MB 231 cells) is “no cytotoxic effect”. In addition, the “surface nucleolin among purified proteins bound to the compound” value in the data set on surface nucleolin [3] is given as “over 90%”. The “inhibition of proliferation of cells stimulated by foetal calf serum” value in the data set with NIH-3T3 cells is listed as “capable of inhibiting”.
